Measurements taken from patent US20230233569A1 (Revolution Medicines, Inc., priority 2020, published 2023).

Sequences of proteins named here, by UniProt entry; tags and fusion partners are left off. A change or cut given only in a name is not applied to a line headed by its entry. Residues count along the entry.
UniProt P01116, 1-169 isoform 2 G12C limits assumed: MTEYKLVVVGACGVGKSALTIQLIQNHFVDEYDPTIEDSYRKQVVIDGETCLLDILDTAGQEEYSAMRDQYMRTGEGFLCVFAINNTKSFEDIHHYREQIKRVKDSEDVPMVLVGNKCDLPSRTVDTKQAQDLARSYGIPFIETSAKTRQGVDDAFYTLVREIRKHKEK
UniProt P62937, whole entry, stated change not applied: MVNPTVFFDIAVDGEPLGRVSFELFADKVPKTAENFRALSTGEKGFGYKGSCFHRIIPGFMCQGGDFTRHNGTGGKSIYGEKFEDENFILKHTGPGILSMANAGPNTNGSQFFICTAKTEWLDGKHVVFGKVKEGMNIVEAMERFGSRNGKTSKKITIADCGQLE

Assays:
[1] = system: K-Ras G12C (NCI-H358 cells); test: Potency assay: pERK (AlphaLISA SureFire or In-Cell Western); assay type: cell-based, human; details: read-out: H358 pERK (K-Ras G12C) EC50
[2] = molecular target: KRAS G12C (Homo sapiens, UniProt P01116+P62937, G12C); test: Disruption of BRAF RBD interaction with Ras (FRET / MOA assay, with Cyclophilin A); assay type: biochemical; details: read-out: FRET (K-Ras G12C) IC50
[3] = system: NCI-H358 (K-Ras G12C); test: CellTiter-Glo cell viability assay, 5-day treatment; assay type: cell-based, human; details: read-out: H358 Cell Viability (K-Ras G12C) IC50

**Q.** With `C=CC(=O)N1CC[C@H](C(=O)N(C)[C@H](C(=O)N[C@H]2Cc3cc(O)cc(c3)-c3ccc4c(c3)c(c(-c3ccc(N5CCN(C)CC5)nc3)n4CC)CC(C)(C)COC(=O)[C@@H]3CCCN(N3)C2=O)C(C)C)C1` [A89a] as the molecule, how does the EC50 [1] read?
**A.** 3 nM

**Q.** And the IC50 [2]?
**A.** 9 nM

**Q.** What about the IC50 [3] of the same molecule?
**A.** 0.8 nM
